Measured values as given in publication PMC4979570 (Journal of medicinal chemistry, 2016).

Amino acid sequences for entries named in this document (tags omitted). Residues count along the entry.
UniProt P41148, 22-804: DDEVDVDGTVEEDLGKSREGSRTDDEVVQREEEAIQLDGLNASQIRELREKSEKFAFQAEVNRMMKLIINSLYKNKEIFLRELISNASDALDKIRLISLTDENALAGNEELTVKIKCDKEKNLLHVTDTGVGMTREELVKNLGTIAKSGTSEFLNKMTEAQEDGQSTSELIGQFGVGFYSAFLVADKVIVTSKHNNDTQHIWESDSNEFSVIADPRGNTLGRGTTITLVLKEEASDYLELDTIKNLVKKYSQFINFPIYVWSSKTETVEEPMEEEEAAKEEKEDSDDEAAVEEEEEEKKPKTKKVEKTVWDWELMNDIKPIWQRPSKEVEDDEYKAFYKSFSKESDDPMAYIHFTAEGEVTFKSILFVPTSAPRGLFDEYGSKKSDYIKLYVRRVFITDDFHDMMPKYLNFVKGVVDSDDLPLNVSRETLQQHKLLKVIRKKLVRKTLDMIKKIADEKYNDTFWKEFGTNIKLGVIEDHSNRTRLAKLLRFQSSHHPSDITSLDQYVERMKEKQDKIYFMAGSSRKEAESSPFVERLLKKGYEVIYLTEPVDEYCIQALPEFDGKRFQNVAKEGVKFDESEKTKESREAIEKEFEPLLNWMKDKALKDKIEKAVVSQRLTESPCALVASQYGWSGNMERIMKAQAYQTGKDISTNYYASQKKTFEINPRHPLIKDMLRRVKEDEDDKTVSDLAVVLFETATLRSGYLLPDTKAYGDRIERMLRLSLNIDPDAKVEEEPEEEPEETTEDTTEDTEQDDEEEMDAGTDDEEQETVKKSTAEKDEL

These molecules were tested against Grp94 (Canis lupus familiaris, UniProt P41148). Details: Grp94 over Hsp90α, from apparent Kd.
Assay type: binding

Row | Compound | Fold Selective for Grp94 [fold]
1 | C#Cc1ccc(Cn2ccnc2CCc2c(Cl)c(O)cc(O)c2C(=O)OC)cc1 [compound 18, Methyl 3-Chloro-2-(2-(1-(4-ethynylbenzyl)-1H-imidazol-2-yl)-ethyl)-4,6-dihydroxybenzoate] | 11
2 | COC(=O)c1c(O)cc(O)c(Cl)c1CCc1nccn1Cc1ccccc1C [compound 36, Methyl 3-Chloro-4,6-dihydroxy-2-(2-(1-(2-methylbenzyl)-1H-imidazol-2-yl)ethyl)benzoate] | 23
3 | COC(=O)c1c(O)cc(O)c(Cl)c1CCc1nccn1Cc1ccc(OC)cc1 [compound 21, Methyl 3-Chloro-4,6-dihydroxy-2-(2-(1-(4-methoxybenzyl)-1H-imidazol-2-yl)ethyl)benzoate] | >22
4 | COC(=O)c1c(O)cc(O)c(Cl)c1CCc1nccn1Cc1ccc(C#N)cc1 [compound 17, Methyl 3-Chloro-2-(2-(1-(4-cyanobenzyl)-1H-imidazol-2-yl)-ethyl)-4,6-dihydroxybenzoate] | 4
5 | COC(=O)c1c(O)cc(O)c(Cl)c1CCc1nccn1Cc1cccc(F)c1 [compound 26, Methyl 3-Chloro-2-(2-(1-(3-fluorobenzyl)-1H-imidazol-2-yl)ethyl)-4,6-dihydroxybenzoate] | 6
6 | COC(=O)c1c(O)cc(O)c(Cl)c1CCc1nccn1Cc1ccccc1OC(C)C [compound 41, Methyl 3-Chloro-4,6-dihydroxy-2-(2-(1-(2-isopropoxybenzyl)-1H-imidazol-2-yl)ethyl)benzoate] | 3
7 | COC(=O)c1c(O)cc(O)c(Cl)c1CCc1nccn1Cc1ccccc1OC [compound 38, Methyl 3-Chloro-4,6-dihydroxy-2-(2-(1-(2-methoxybenzyl)-1H-imidazol-2-yl)ethyl)benzoate] | > 40
8 | CCc1ccccc1Cn1ccnc1CCc1c(Cl)c(O)cc(O)c1C(=O)OC [compound 39, Methyl 3-Chloro-2-(2-(1-(2-ethylbenzyl)-1H-imidazol-2-yl)ethyl)-4,6-dihydroxybenzoate] | > 40
9 | COC(=O)c1c(O)cc(O)c(Cl)c1CCc1nccn1Cc1ccc(C)cc1 [compound 14, Methyl 3-Chloro-4,6-dihydroxy-2-(2-(1-(4-methylbenzyl)-1H-imidazol-2-yl)ethyl)benzoate] | 34
10 | COC(=O)c1c(O)cc(O)c(Cl)c1CCc1nccn1Cc1ccccc1Br [compound 35, Methyl 2-(2-(1-(2-Bromobenzyl)-1H-imidazol-2-yl)ethyl)-3-chloro-4,6-dihydroxybenzoate] | 13
11 | COC(=O)c1c(O)cc(O)c(Cl)c1CCc1nccn1Cc1ccccc1C(F)(F)F [compound 43, Methyl 3-Chloro-4,6-dihydroxy-2-(2-(1-(2-(trifluoromethyl)-benzyl)-1H-imidazol-2-yl)ethyl)benzoate] | 13

Same assay, conditions: relative to BnIm

Row | Compound | increase in affinity for Grp94 compared to BnIm
12 | CCOc1ccccc1Cn1ccnc1CCc1c(Cl)c(O)cc(O)c1C(=O)OC [compound 40, Methyl 3-Chloro-2-(2-(1-(2-ethoxybenzyl)-1H-imidazol-2-yl)-ethyl)-4,6-dihydroxybenzoate] | ~ 6 fold
